According to US10336717B2, “Inhibitors of beta-secretase” (Vitae Pharmaceuticals, Inc., priority 2009, dated 2019):

Target: ectodomain of BACE (aa 1-454) (Homo sapiens (Human), UniProt P56817)
Test: BACE FRET assay (Example 435; assay format A or B)
Type: biochemical
Conditions: footnote b: determined according to protocols described in Example 435

`CN1C(=O)C2(N=C1N)c1cc(-c3cccnc3)ccc1CC21CCc2ccccc2CC1` (stereo not shown) [Compound 418] was tested, and the IC50 was 8.7 nM.
